Patent publication US20240293352A1 (priority 2021, published 2024)

Columns and labels:
[1] = pH and appearance of vanadyl sulfate solutions; conditions: at the concentration required to enhance oncolytic VSV in vivo
[2] = test system: VSVΔ51-GFP in 786-0 cells; assay: Fold change in GFP-positive area following VSVΔ51-GFP infection in 786-0 cells; assay type: cell-based, human

vanadyl sulfate
Acidity of unbuffered solution and effect on admixed VSV (in words) [1]: highly acidic and leads to rapid inactivation of VSV
Fold change in GFP ([2]; Concentration 35.1): 11 fold
Fold change in GFP ([2]; Concentration 52.7): 24 fold
Fold change in GFP ([2]; Concentration 79.0): 34 fold
Fold change in GFP ([2]; Concentration 88.0): 43 fold
Fold change in GFP ([2]; Concentration 118.5): 79 fold
Fold change in GFP ([2]; Concentration 132.0): 89 fold
Fold change in GFP ([2]; Concentration 177.8): 119 fold
Fold change in GFP ([2]; Concentration 198.0): 114 fold
Fold change in GFP ([2]; Concentration 266.7): 156 fold
Fold change in GFP ([2]; Concentration 296.0): 178 fold
Fold change in GFP ([2]; Concentration 400.0): 200 fold
Fold change in GFP ([2]; Concentration 444.0): 141 fold
Fold change in GFP ([2]; Concentration 667.0): 119 fold
Fold change in GFP ([2]; Concentration 1000.0): 76 fold
